Patent US10624947B2, “Bactericidal peptides and uses thereof” (INDIANA UNIVERSITY RESEARCH AND TECHNOLOGY CORPORATION, priority 2016, dated 2020)
≈ marks a conversion by molar mass, not a printed value.

Tested on: Escherichia coli
Settings: E. coli ATCC 25922

CC[C@H](C)[C@H](NC(=O)[C@H](CCCNC(=N)N)NC(=O)[C@H](CS)NC(=O)[C@@H]1CCCN1C(=O)[C@H](Cc1ccc(O)cc1)NC(=O)[C@@H]1CCCN1C(=O)[C@@H](NC(=O)[C@H](CCC(N)=O)NC(=O)CNC(=O)[C@H](Cc1ccc(O)cc1)NC(=O)[C@H](CCC(=O)O)NC(=O)[C@H](CCCNC(=N)N)NC(=O)[C@H](Cc1c[nH]c2ccccc12)NC(=O)[C@H](C)NC(=O)[C@H](CCCCN)NC(=O)[C@H](Cc1c[nH]c2ccccc12)NC(=O)[C@@H](NC(=O)[C@H](CCCCN)NC(=O)[C@H](CCCNC(=N)N)NC(=O)CNC(=O)[C@@H](NC(=O)[C@H](CCCCN)NC(=O)CNC(=O)[C@@H](NC(=O)[C@H](CCCCN)NC(=O)[C@H](CCCNC(=N)N)NC(=O)CNC(=O)[C@H](CC(C)C)NC(=O)[C@H](CCCCN)NC(=O)[C@H](CCC(N)=O)NC(=O)[C@@H](NC(=O)[C@H](CCCNC(=N)N)NC(=O)[C@H](CCCCN)NC(=O)[C@H](CCCNC(=N)N)NC(=O)[C@@H](NC(=O)[C@H](CCCCN)NC(=O)[C@H](CCCNC(=N)N)NC(=O)[C@H](Cc1ccccc1)NC(=O)[C@H](CCCCN)NC(=O)[C@H](CCCCN)NC(=O)[C@H](CCCNC(=N)N)NC(=O)[C@H](CC(C)C)NC(=O)CN)[C@@H](C)O)[C@@H](C)CC)[C@@H](C)CC)[C@@H](C)O)C(C)C)[C@@H](C)CC)C(=O)O [CAP-11, reference compound]
Minimal inhibitory concentration: 4 µg/mL (≈ 0.757 µM)
